Reference: patent EP0820772A1, “IMMUNOMODULATING MEDICINAL AGENT” (Travkin, Oleg Viktorovich, priority 1995, dated 1996)

Conditions: in vivo

Substance: ether of 10 - methylencarboxylat-9-acridone [The proposed drug]
- toxicity (therapeutic index): 100-500
